Tested on: mouse FL5.12 cells transfected with Bcl-XL
Experiment: FL5.12 cellular assay (cell viability, CellTiter-Glo);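 also: each EC50 determination derived from duplicate measurements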
Type: cell-based
Details: IL-3-depleted, 3% FBS assay media, 24 hours, read-out: FL5.12 Bcl-xL, - IL3, EC 50

Sequences of proteins named here, by UniProt entry; tags and fusion partners are left off.
UniProt Q07817, whole entry: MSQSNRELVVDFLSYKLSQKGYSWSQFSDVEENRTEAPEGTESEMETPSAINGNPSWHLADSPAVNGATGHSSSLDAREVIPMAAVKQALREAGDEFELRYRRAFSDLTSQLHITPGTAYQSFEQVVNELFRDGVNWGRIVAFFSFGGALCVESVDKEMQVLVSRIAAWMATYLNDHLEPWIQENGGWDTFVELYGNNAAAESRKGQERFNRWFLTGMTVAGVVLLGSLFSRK

Molecule | EC50
Cc1cccc(Cn2cc(-c3ccc(N4CCc5cccc(C(=O)Nc6nc7ccccc7s6)c5C4)nc3C(=O)O)cn2)c1 [Example 13, 6-[8-(1,3-benzothiazol-2-ylcarbamoyl)-3,4-dihydroisoquinolin-2(1H)-yl]-3-[1-(3-methylbenzyl)-1H-pyrazol-4-yl]pyridine-2-carboxylic acid] | 498 nM
O=C(Nc1nc2ccccc2s1)c1cccc2c1CN(c1ccc(-c3cnn(Cc4ccccc4Cl)c3)c(C(=O)O)n1)CC2 [Example 25, 6-[8-(1,3-benzothiazol-2-ylcarbamoyl)-3,4-dihydroisoquinolin-2(1H)-yl]-3-[1-(2-chlorobenzyl)-1H-pyrazol-4-yl]pyridine-2-carboxylic acid] | 377 nM

Molecular target: GST-Bcl-xL (Homo sapiens, UniProt Q07817)
Experiment: not given
Details: read-out: TR-FRET binding Bcl-xL Ki

Molecule | Ki
6-[8-(1,3-benzothiazol-2-ylcarbamoyl)-3,4-dihydroisoquinolin-2(1H)-yl]-3-(5-methyl-1-{[6-(pyrrolidin-1-yl)pyridin-2-yl]methyl}-1H-pyrazol-4-yl)pyridine-2-carboxylic acid and 6-(8-(1,3-benzothiazol-2-ylcarbamoyl)-3,4-dihydroisoquinolin-2(1H)-yl)-3-(3-methyl-1-((6-(pyrrolidin-1-yl)pyridin-2-yl)methyl)-1H-pyrazol-4-yl)pyridine-2-carboxylic acid [Example 32] | 5 nM
Cc1c(-c2ccc(N3CCc4cccc(C(=O)Nc5nc6ccccc6s5)c4C3)nc2C(=O)O)cnn1Cc1ccccc1OCC1CCOCC1 [Example 99, 6-[8-(1,3-benzothiazol-2-ylcarbamoyl)-3,4-dihydroisoquinolin-2(1H)-yl]-3-{5-methyl-1-[2-(tetrahydro-2H-pyran-4-ylmethoxy)benzyl]-1H-pyrazol-4-yl}pyridine-2-carboxylic acid] | 0.9 nM
O=C(Nc1nc2ccccc2s1)c1cccc2c1CN(c1ccc(-c3ccc(Oc4ccccc4)cc3)c(C(=O)O)n1)CC2 [Example 102, 6-[8-(1,3-benzothiazol-2-ylcarbamoyl)-3,4-dihydroisoquinolin-2(1H)-yl]-3-(4-phenoxyphenyl)pyridine-2-carboxylic acid] | < 0.1 nM
Cc1c(Oc2ccccc2)cccc1-c1ccc(N2CCc3cccc(C(=O)Nc4nc5ccccc5s4)c3C2)nc1C(=O)O [Example 110, 6-[8-(1,3-benzothiazol-2-ylcarbamoyl)-3,4-dihydroisoquinolin-2(1H)-yl]-3-(2-methyl-3-phenoxyphenyl)pyridine-2-carboxylic acid] | 0.3 nM
O=C(Nc1nc2ccccc2s1)c1cccc2c1CN(c1ccc(-c3cnn(CC4CCCCO4)c3)c(C(=O)O)n1)CC2 (stereo not drawn) [Example 149, 6-[8-(1,3-benzothiazol-2-ylcarbamoyl)-3,4-dihydroisoquinolin-2(1H)-yl]-3-[1-(tetrahydro-2H-pyran-2-ylmethyl)-1H-pyrazol-4-yl]pyridine-2-carboxylic acid] | 0.3 nM
Cc1c(-c2ccc(N3CCc4cccc(C(=O)Nc5nc6ccccc6s5)c4C3)nc2C(=O)O)cccc1N(C)c1ccccc1 [Example 156, 6-[8-(1,3-benzothiazol-2-ylcarbamoyl)-3,4-dihydroisoquinolin-2(1H)-yl]-3-{2-methyl-3-[methyl(phenyl)amino]phenyl}pyridine-2-carboxylic acid] | 0.2 nM
CN(c1nccc(-c2ccc(N3CCc4cccc(C(=O)Nc5nc6ccccc6s5)c4C3)nc2C(=O)O)c1C#N)C1CCCCC1 [Example 164, 6-[8-(1,3-benzothiazol-2-ylcarbamoyl)-3,4-dihydroisoquinolin-2(1H)-yl]-3'-cyano-2'-[cyclohexyl(methyl)amino]-3,4'-bipyridine-2-carboxylic acid] | < 0.1 nM

From patent publication EP2768830B1, “APOPTOSIS-INDUCING AGENTS FOR THE TREATMENT OF CANCER AND IMMUNE AND AUTOIMMUNE DISEASES” (AbbVie Inc., priority 2011, dated 2013)
